# Binding of CDR-mutated scFvs to a peptide of the spike HR2 region

From the AlphaSeq antibody data of Engelhart et al. 2022 (doi:10.1038/s41597-022-01779-4), copy in the FLAb collection.

Binding partner: SARS-CoV-2 spike HR2 peptide, sequence PDVDLGDISGINAS.

Each scFv is VL, the linker GGGGSGGGGSGGGGS, VH, as in the parent Ab-91, and differs from it in the CDRs of the heavy chain only.
VL: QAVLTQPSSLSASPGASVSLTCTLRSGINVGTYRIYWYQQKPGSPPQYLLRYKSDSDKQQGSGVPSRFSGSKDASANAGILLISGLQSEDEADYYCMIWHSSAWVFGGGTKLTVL
VH: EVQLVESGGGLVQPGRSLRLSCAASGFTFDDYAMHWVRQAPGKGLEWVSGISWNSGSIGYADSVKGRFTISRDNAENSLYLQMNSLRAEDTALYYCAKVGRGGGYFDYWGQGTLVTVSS

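The starting antibody came from a phage panning campaign against this peptide. Library AAYL51 holds single substitutions and randomly drawn double and triple substitutions in the CDRs. In AlphaSeq, yeast of one mating type display the scFv and yeast of the other type display the target. Pairs that bind mate more often; barcode pairs of the diploids are counted by sequencing. The ratio of observed to expected reads was calibrated, replicate by replicate, on BCL2-family standards whose Kd was known from biolayer interferometry. There are three technical replicates.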

Variants are written as CDR1, CDR2 and CDR3 of the heavy chain (limits as in the source). Parent: GFTFDDYAMH, GISWNSGSIGYADSVK, VGRGGGYFDY. Scale: log10 of Kd in nM, estimated from mating counts; low values are strong binders. Where no diploid with the target was found in that replicate, the entry reads "ND": below detection, most likely a poor binder, though not proof of it. Parent in this assay: reference entry 1.86, copy in this library 0.88. Nonspecific signal, from three strains lacking the peptide, appeared in 21% of pairings of library AAYL51, centred on 4.54 (5% of these signals below 3.26); values are not corrected for it. For each scFv, signals with the empty controls are counted beside the result, with their mean in brackets.

CDR-H1	CDR-H2	CDR-H3	log10 Kd, replicates	control signals
GFRFDDYAMH	GWSWNVGSIGYADSVK	VGRGGGYFDY	6.09 6.18 4.56	5/9 (4.38)
GFTFDDYAMR	GISWNSGSIGYRDSVK	VGRGGDYFDY	4.50 6.34 ND	6/9 (5.22)
NFTFEDYAMH	GISWNSGSIGYADSVK	VGRGGGYFDI	4.21 5.98 ND	5/9 (4.08)
VFTFDDYAMW	GISRNSGSIGYADSVK	VGRGGGYFDY	2.51 2.84 2.79	1/9 (3.80)
GFTFDDYAMH	GPSWNSVPIGYADSVK	VGRGGGYFDY	5.62 ND 5.00	3/9 (4.87)
CFTFDDYAMH	GISWNSGSIGYATSVK	VGRGGGTFDY	ND ND ND	1/9 (4.37)
GFTFDDGAMH	GISWNSGSIGYADSVK	VGRGGGYFDY	ND ND ND	1/9 (4.05)
GFTFDDYAMV	GISWNSGSIGYAPSVK	VGRGGGGFDY	5.63 ND 5.01	2/9 (4.65)
GYTFDDYAMH	GISWNSGSIGYADSVK	VGRGGGYFYT	4.82 ND ND	4/9 (4.49)
GFTFDDYAMH	GISWNSGSIGYADSEN	VGRGGGYFDY	ND ND ND	0/9
AFTFDDYAMH	GISWNSGSIGYAWSVK	VGRGGTYFDY	ND ND ND	0/9
GFTFDDYAMH	GISWNSMSIGDADSVK	VGRGGGYFDC	3.90 3.42 ND	5/9 (5.05)
GFTFDDYAMH	GISWNSGSIGYADEVK	VGRGMGYFDY	ND ND ND	0/9
GFTFDDYAMH	GISWNSGKIGYADSVK	VGRIGGYFDY	ND ND ND	1/9 (3.66)
GRTFDDYAMH	GISWNSGSIGYIDSVK	VQRGGGYFDY	ND ND ND	3/9 (3.88)
GFTCDDYAMH	GISWNSGSIGYADSVK	VGEYGGYFDY	4.33 4.19 ND	3/9 (4.18)
GFTFDDYAMH	GISQCSGSIGYAQSVK	VGRGGGYFDY	3.31 5.37 3.89	2/9 (4.73)
GFTFDDYLMH	GISWNSGSIGHVDSVK	VGRGGGYFDY	ND ND ND	0/9
GETFDDGAMH	GISWNSGSIGGADSVK	VGRGGGYFDY	ND ND ND	0/9
GFTFDDYAYH	GISWNSGSIGYVDSYK	VGRGGGYFDY	ND ND ND	0/9
GGTFDDYAMH	GISWNHGSTGYADSVK	VGRGGGYFDY	ND ND ND	0/9
GFTFDDYAFH	GILWNSGSIGYADSVK	VGYGGGYFDY	4.34 ND ND	0/9
GNTFDDYANH	GGSWNSGSIGYADSVK	VGRGGGYFDY	ND 5.16 ND	2/9 (4.01)
GFTEDDCFMH	GISWNSGSIGYADSVK	VGRGGGYFDY	ND ND ND	2/9 (3.30)
GFTFDDYAMC	GISWNDGSIGYADSVK	IGRGGGYFDY	ND 3.85 ND	2/9 (4.33)
GFTFTDYAMH	GIVWNSGSFGYADSVK	VGRGGGYFDY	ND ND ND	0/9
GNTFDVYPMH	GISWNSGSIGYADSVK	VGRGGGYFDY	ND ND ND	0/9
GGTFDDYAMH	GISWNSGSIGYADSVP	VGRGGGYFDY	4.78 ND ND	2/9 (4.53)
GFTFDDPAMH	GISWNSGSIGYADSVK	YGRGIGYFDY	ND ND ND	0/9
GFTFDDYAMH	GISWNSGSIGYADIVK	VGRGGFYRDY	5.44 5.99 ND	2/9 (2.94)
GFTFNDYAMH	GISWNSGSIGYRDSVK	VGRGGNYFDY	1.38 1.77 1.29	4/9 (4.24)
GQTFDDYAMH	GISWNSGSIGYWDSVK	VGRGGGYRDY	ND ND ND	4/9 (3.67)
GFTFDDQAMH	VIIWNSGSIGYADSVK	VGRGGGYFDY	ND ND ND	0/9
GLTFDDYAPH	GISWNSGSIGYADSVM	VGRGGGYFDY	ND ND ND	2/9 (3.66)
GFTFDDYAMH	GISWNSGSIGYAPSVK	VGRGGPKFDY	3.03 2.82 1.88	1/9 (4.86)

4 of these entries, quoted again:

CDR-H1	CDR-H2	CDR-H3	log10 Kd, replicates	control signals
NFTFEDYAMH	GISWNSGSIGYADSVK	VGRGGGYFDI	4.21 5.98 ND	5/9 (4.08)
GQTFDDYAMH	GISWNSGSIGYWDSVK	VGRGGGYRDY	ND ND ND	4/9 (3.67)
GGTFDDYAMH	GISWNHGSTGYADSVK	VGRGGGYFDY	ND ND ND	0/9
GFTFDDYAMH	GISWNSMSIGDADSVK	VGRGGGYFDC	3.90 3.42 ND	5/9 (5.05)